Tests used:
[1] = Ratio of fraction unbound in solid supported porcine brain membrane vesicles at 5 uM by TRANSIL assay to fraction unbound in Wistar rat brain homogenate at 5 uM after 5 hrs by equilibrium dialysis method; type: ADME, tissue-based
Albumin = Albumin (Rattus norvegicus, UniProt P02770); experiment: Binding affinity to Wistar rat serum albumin; type: ADME
[2] = Ratio, ratio of fraction unbound in solid supported porcine brain membrane vesicles at 5 uM dosed as discrete compounds after 5 hrs by TRANSIL assay to fraction unbound in solid supported porcine brain membrane vesicles at 5 uM using four compound cocktail after 5 hrs by TRANSIL assay; type: ADME, Sus scrofa; conditions: pig, in vitro
[3] = Binding affinity to Wistar rat brain lipid by TRANSIL assay; type: ADME
[4] = Ratio of fraction unbound in Wistar rat brain homogenate at 5 uM after 5 hrs by equilibrium dialysis method to fraction unbound in solid supported porcine brain membrane vesicles at 5 uM by TRANSIL assay

Row | Structure (SMILES) | Ratio [1] | Kd (Albumin) | Ratio [2] | Kd [3] | Ratio [4]
1 | NC(=O)N1c2ccccc2C=Cc2ccccc21 [CARBAMAZEPINE] | 1.1 | 103 µM | 0.5 |  | 
2 | CN(C)CCCN1c2ccccc2Sc2ccc(Cl)cc21 [CHLORPROMAZINE] | 1.1 | 11.7 µM |  |  | 
3 | CN1C(=O)CN=C(c2ccccc2)c2cc(Cl)ccc21 [DIAZEPAM] |  |  |  | 3.24 µM | 
4 | CCN(CC)CCNC(=O)c1cc(Cl)c(N)cc1OC [METOCLOPRAMIDE] |  | 1370 µM |  |  | 1.2
5 | CN1CCN(CCCN2c3ccccc3Sc3ccc(C(F)(F)F)cc32)CC1 [TRIFLUOPERAZINE] | 2.6 | 14 µM |  |  | 
6 | COc1ccc(C(CN(C)C)C2(O)CCCCC2)cc1 (configuration not stated) [VENLAFAXINE] |  | 511 µM |  |  | 1.7
